Results taken from PubChem BioAssay (NCI).
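Results reflect a 48-hour exposure of cells in 96-well plates to compound at five concentrations. TGI: concentration producing complete growth inhibition.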

Experiments:
Test in all cases: NCI-60 cell line screen, 48 h
[1] = system: 786-0 renal
[2] = system: A498 renal
[3] = system: A549 NSCLC
[4] = system: ACHN renal
[5] = system: BT-549 breast
[6] = system: CAKI-1 renal
[7] = system: CCRF-CEM leukemia
[8] = system: COLO 205 colon
[9] = system: DU-145 prostate
[10] = system: EKVX NSCLC
[11] = system: HCC-2998 colon
[12] = system: HCT-116 colon
[13] = system: HCT-15 colon
[14] = system: HOP-62 NSCLC
[15] = system: HOP-92 NSCLC
[16] = system: HS 578T breast
[17] = system: HT29 colon
[18] = system: IGROV1 ovarian
[19] = system: K-562 leukemia
[20] = system: KM12 colon
[21] = system: LOX IMVI melanoma
[22] = system: M14 melanoma
[23] = system: MALME-3M melanoma
[24] = system: MCF7 breast
[25] = system: MDA-MB-231 breast
[26] = system: MOLT-4 leukemia
[27] = system: NCI-H226 lung
[28] = system: NCI-H23 lung
[29] = system: NCI-H322M lung
[30] = system: NCI-H460 lung
[31] = system: NCI-H522 lung
[32] = system: NCI/ADR-RES ovarian
[33] = system: OVCAR-3 ovarian
[34] = system: OVCAR-4 ovarian
[35] = system: OVCAR-5 ovarian
[36] = system: OVCAR-8 ovarian
[37] = system: PC-3 prostate
[38] = system: SF-268 CNS
[39] = system: SF-295 CNS
[40] = system: SK-MEL-2 melanoma
[41] = system: SK-MEL-28 melanoma
[42] = system: SK-MEL-5 melanoma
[43] = system: SK-OV-3 ovarian
[44] = system: SN12C renal
[45] = system: SNB-19 CNS
[46] = system: SW-620 colon
[47] = system: T-47D breast
[48] = system: TK-10 renal
[49] = system: U251 CNS
[50] = system: UACC-257 melanoma
[51] = system: UACC-62 melanoma
[52] = system: UO-31 renal

With `CN(C)CCn1c(Cn2nc3ccccc3n2)nc2cc(Cl)ccc21` the TGI [1] was over 100 µM, the TGI [2] was over 100 µM and the TGI [3] was over 100 µM. It also gave a TGI [4] of over 100 µM, a TGI [5] of over 100 µM and a TGI [6] of over 100 µM. The TGI [7] was 69.9 µM, the TGI [8] was over 100 µM and the TGI [9] was over 100 µM. The TGI [10] was over 100 µM, the TGI [11] was 70.5 µM and the TGI [12] was over 100 µM. It also gave a TGI [13] of over 100 µM, a TGI [14] of over 100 µM and a TGI [15] of over 100 µM. For the same molecule, the TGI [16] was over 100 µM, the TGI [17] was over 100 µM and the TGI [18] was over 100 µM. For the same molecule, the TGI [19] was over 100 µM, the TGI [20] was over 100 µM and the TGI [21] was over 100 µM. It also gave a TGI [22] of over 100 µM, a TGI [23] of over 100 µM and a TGI [24] of over 100 µM. For the same molecule, the TGI [25] was over 100 µM, the TGI [26] was 51.7 µM and the TGI [27] was over 100 µM. The TGI [28] was over 100 µM, the TGI [29] was over 100 µM and the TGI [30] was over 100 µM. For the same molecule, the TGI [31] was over 100 µM, the TGI [32] was over 100 µM and the TGI [33] was over 100 µM. It also gave a TGI [34] of over 100 µM, a TGI [35] of over 100 µM and a TGI [36] of over 100 µM. It also gave a TGI [37] of over 100 µM, a TGI [38] of over 100 µM and a TGI [39] of over 100 µM. It also gave a TGI [40] of over 100 µM, a TGI [41] of over 100 µM and a TGI [42] of over 100 µM. The TGI [43] was over 100 µM, the TGI [44] was over 100 µM and the TGI [45] was over 100 µM. The TGI [46] was over 100 µM, the TGI [47] was over 100 µM and the TGI [48] was over 100 µM. The TGI [49] was over 100 µM, the TGI [50] was over 100 µM and the TGI [51] was over 100 µM. For the same molecule, the TGI [52] was 34.2 µM.
